# From paper PMC4835159 (Journal of Medicinal Chemistry, 2016)
# Target: T1, CYP144TR (Mycobacterium tuberculosis, UniProt P9WPL1)
# T1 sequence (P9WPL1 31-434 limits assumed): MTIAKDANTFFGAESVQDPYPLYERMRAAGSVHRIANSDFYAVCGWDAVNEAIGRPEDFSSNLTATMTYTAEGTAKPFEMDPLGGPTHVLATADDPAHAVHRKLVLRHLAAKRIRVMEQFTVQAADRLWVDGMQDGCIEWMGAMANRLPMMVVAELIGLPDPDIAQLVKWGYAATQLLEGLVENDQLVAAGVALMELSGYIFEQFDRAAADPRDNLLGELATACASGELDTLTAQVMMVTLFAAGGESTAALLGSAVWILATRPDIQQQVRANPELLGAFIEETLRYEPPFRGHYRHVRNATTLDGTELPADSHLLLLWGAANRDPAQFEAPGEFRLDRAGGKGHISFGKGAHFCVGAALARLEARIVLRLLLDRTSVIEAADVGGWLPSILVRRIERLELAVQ
smiles,measurement,value
"Nc1cccc(-c2cc(-c3c(-c4ccc(O)cc4)n[nH]c3N)ccc2O)c1 [25b, 3′-Amino-5-(5-amino-3-(4-hydroxyphenyl)-1H-pyrazol-4-yl)-[1,1′-biphenyl]-2-ol]",Kd,248 µM
